Earlier results, collected in patent publication US9464021B2, “Method of preparation of stereospecific quinone derivatives” (priority 2013, dated 2016).

The chains behind the UniProt entries cited, without tags or fusion partners. Residues count along the entry.
UniProt P23219, 24-599: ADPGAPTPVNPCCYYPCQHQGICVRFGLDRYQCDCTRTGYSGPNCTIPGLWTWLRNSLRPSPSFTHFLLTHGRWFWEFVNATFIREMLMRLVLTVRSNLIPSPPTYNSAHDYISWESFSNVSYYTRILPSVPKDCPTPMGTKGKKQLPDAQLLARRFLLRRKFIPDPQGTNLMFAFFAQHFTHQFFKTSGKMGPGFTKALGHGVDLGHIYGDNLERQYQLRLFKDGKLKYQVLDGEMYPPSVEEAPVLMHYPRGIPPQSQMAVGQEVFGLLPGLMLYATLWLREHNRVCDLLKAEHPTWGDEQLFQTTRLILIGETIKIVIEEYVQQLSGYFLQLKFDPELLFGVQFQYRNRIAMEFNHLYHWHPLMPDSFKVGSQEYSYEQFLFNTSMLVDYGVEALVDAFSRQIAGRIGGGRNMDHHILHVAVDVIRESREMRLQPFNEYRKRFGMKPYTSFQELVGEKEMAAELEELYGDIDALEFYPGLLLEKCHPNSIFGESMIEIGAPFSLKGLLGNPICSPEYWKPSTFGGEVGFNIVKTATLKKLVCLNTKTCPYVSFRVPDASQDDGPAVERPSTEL

Target: cyclo-oxygenase I (Homo sapiens, UniProt P23219)
Conditions: versus R-ibuprofen

potency as inhibitor of cyclo-oxygenase I relative to R-ibuprofen: over 100 fold
SMILES: CC(C)Cc1ccc([C@H](C)C(=O)O)cc1 [S-ibuprofen]
